# Measured values taken from patent US9205121B2, “Echinacea formulation” (Integria Healthcare (Australia) PTY LTD, priority 2004, dated 2015).
# System: Caco-2 cell monolayers
# Conditions: observed by the present inventors
# Excerpt: Such monolayers are used to model the absorption of compounds across the intestinal barrier.
substance,measurement,value
echinacoside,passage (permeability) across Caco-2 cell monolayers,very poor passage
